This test addresses Substance-K receptor (Cavia porcellus, UniProt Q64077). Nature of the test: Inhibitory activity against Neurokinin 2 (NK2) receptor from guinea pig ileum. In kind it is tissue-based.

Chains of the proteins cited; added tags and fusions are not shown.
UniProt Q64077, whole entry, looked up: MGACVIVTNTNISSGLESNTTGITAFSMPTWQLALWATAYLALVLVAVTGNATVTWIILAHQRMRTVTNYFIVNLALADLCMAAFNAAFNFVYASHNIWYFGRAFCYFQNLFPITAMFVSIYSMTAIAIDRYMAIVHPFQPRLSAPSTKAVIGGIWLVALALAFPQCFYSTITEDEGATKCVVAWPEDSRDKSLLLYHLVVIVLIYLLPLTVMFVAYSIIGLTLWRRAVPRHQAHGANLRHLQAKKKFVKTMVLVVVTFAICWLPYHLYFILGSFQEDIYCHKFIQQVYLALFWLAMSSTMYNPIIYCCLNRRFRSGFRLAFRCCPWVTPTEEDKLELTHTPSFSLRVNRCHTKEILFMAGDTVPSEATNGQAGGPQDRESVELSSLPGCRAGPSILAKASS

In the case of `COc1cc(C(=O)N2CO[C@](CCN3CCC4(CC3)C(=O)NCN4c3ccccc3)(c3ccc(Cl)c(Cl)c3)C2)cc(OC)c1OC`, the IC50 is 239 nM.

These data come from ChEMBL document CHEMBL1132079, “Combined NK1 and NK2 tachykinin receptor antagonists: synthesis and structure-activity relationships of novel oxazolidine analogues” (Bioorg Med Chem Lett, 1999).
